ChEMBL document CHEMBL1133545, “Inhibition of monoamine oxidases by functionalized coumarin derivatives: biological activities, QSARs, and 3D-QSARs” (J Med Chem, 2000)

Protein sequences, listed by entry. Tags and fused reporters are not part of them.
UniProt P19643, whole entry: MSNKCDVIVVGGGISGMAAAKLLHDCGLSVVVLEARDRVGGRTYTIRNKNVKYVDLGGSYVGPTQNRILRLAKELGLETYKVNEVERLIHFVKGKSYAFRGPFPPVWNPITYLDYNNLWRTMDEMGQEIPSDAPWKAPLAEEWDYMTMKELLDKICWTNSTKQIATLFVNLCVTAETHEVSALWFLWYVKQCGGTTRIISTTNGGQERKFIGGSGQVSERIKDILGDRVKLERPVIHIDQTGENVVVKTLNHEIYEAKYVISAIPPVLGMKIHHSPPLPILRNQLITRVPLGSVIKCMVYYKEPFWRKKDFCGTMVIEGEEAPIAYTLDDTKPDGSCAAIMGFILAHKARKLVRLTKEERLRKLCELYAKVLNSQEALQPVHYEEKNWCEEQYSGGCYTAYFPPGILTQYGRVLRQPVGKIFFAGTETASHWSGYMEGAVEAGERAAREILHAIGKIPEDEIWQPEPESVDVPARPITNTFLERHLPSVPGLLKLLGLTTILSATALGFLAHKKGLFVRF

Target: Amine oxidase [flavin-containing] B (Rattus norvegicus, UniProt P19643)

Structure (SMILES): CC(=O)Nc1cccc(COc2ccc3c(C)c(C)c(=O)oc3c2)c1
- IC50: 251 nM
